# Values of other authors in US6303618A, “Cyclin dependent kinase inhibiting purine derivatives” (priority 1997, dated 2001).
# Test system: CDK5
# Conditions: in words; cited from earlier work
compound,measurement,value
"Cn1cnc2c(NCc3ccccc3)nc(NCCO)nc21 [Olomoucine, 2-(2-hydroxyethylamino)-6-benzylamino-9-methyl-purine]",inhibition of CDK5,inhibit activity
